Experimental data: ChEMBL document CHEMBL1781971, “Discovery of 5-(arenethynyl) hetero-monocyclic derivatives as potent inhibitors of BCR-ABL including the T315I gatekeeper mutant” (Bioorg Med Chem Lett, 2011)

Tests used:
[1] = molecular target: T1, Tyrosine-protein kinase ABL1 (Homo sapiens, UniProt P00519)
[2] = molecular target: T2, Tyrosine-protein kinase ABL1 (Homo sapiens, UniProt P00519, T315I); assay type: protein assay
[3] = molecular target: T2, Tyrosine-protein kinase ABL1
[4] = molecular target: T1, Tyrosine-protein kinase ABL1; remark: listed apart in the source

## CNC(=O)c1ncc(C#Cc2cc(C(=O)Nc3ccc(CN4CCN(CCO)CC4)c(C(F)(F)F)c3)ccc2C)n1C
[1]
  IC50: 0.2 nM
[2]
  IC50: 0.4 nM
[3]
  IC50: 60.2 nM
[4]
  IC50: 17.2 nM
